Target: Replicase polyprotein 1ab (Severe acute respiratory syndrome coronavirus 2, UniProt P0DTD1)
Test: Inhibition of SARS-CoV-2 papain-like protease

COC(=O)/C=C/C(=O)NNC(=O)CCc1ccccc1C(=O)N[C@H](C)c1cccc2ccccc12
IC50: 90 nM

Reference: ChEMBL document CHEMBL6092147, “Design of inhibitors of SARS-CoV-2 papain-like protease deriving from GRL0617: Structure-activity relationships” (Bioorg Med Chem, 2024)
